The entries are a selection whose mix differs from that of the whole data set. Activity calls are given as the source filed them.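 Rule for the calls: active = activation above the mean of all tested compounds plus 3 SD, set per screening campaign (cut at about 17% in these data); inactive = the rest.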

Amino acid sequences for entries named in this document (tags omitted).
UniProt P14735, whole entry: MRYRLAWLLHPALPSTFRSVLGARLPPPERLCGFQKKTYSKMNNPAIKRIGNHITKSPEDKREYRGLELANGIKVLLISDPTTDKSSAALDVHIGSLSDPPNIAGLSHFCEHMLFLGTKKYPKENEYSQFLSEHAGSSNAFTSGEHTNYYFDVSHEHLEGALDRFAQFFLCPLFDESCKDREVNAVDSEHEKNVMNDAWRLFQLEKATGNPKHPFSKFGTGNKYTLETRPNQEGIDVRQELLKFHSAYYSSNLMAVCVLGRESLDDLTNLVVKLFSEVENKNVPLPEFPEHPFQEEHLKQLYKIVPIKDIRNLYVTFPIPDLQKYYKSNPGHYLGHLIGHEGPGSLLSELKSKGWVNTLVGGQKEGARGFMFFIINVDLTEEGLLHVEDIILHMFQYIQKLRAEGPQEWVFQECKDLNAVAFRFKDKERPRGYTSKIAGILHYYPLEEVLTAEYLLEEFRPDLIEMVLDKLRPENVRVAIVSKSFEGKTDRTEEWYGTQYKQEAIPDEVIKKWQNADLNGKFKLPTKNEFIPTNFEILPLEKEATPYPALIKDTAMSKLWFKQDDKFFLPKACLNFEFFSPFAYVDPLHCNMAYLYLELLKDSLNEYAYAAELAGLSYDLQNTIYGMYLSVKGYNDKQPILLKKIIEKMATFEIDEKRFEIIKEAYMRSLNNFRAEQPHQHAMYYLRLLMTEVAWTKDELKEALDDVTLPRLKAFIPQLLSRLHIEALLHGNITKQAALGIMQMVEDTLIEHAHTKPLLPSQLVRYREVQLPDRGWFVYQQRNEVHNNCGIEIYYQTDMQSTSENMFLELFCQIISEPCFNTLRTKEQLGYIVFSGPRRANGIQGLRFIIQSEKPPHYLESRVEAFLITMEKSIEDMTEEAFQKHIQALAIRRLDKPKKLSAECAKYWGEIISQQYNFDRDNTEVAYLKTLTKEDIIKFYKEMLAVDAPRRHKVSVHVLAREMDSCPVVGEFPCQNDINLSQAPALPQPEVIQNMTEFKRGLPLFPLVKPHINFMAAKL

The experiment deals with Insulin-degrading enzyme (Homo sapiens) (UniProt P14735). In words: human IDE activators in live cells, primary screen, fluorescence polarization, HEK cells, FAbeta-B substrate (AID 493087). Particulars: FAbeta-B cleavage, at 5.96 µM, hits give high values, 0% vehicle, 100% cell-free pure enzyme wells.
`COc1ccccc1OP(C)(=O)Nc1ccccc1` (stereo unspecified): the activation was inactive: 1.71%.

For the origin of these results see PubChem BioAssay AID493087 (The Scripps Research Institute Molecular Screening Center, 2011).
